Paper PMC4849473 (2016)

Assays:
[1] = target: T1, Chp1CD wild type, SUMO tag removed, fluorescently labelled (for MST) (fission yeast (S. pombe), UniProt Q10103 15-75, fluorescent label, amine reactive (Monolith Protein Labeling Kit BLUE-NHS), 1:1 fluorescence:protein ratio); assay: MST
T1 chain: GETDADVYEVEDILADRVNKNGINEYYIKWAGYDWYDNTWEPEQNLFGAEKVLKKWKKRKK

[2] = target: Chp1CD LOOP1B/2B, SUMO tag removed, fluorescently labelled (for MST) (fission yeast (S. pombe), UniProt Q10103, in part, N33A | N35A | W49A | Y50A | D51A, fluorescent label, amine reactive (Monolith Protein Labeling Kit BLUE-NHS), 1:1 fluorescence:protein ratio); assay: MST

Kd [1]: 359 nM
Kd [2]: 315 nM
B1: [Lys(Me3)9]-Histone H3 ([…])-GGK(Biotin) peptide (peptide)
peptide: not shown
modifications: trimethyl-lysine at 9; biotin on the C-terminal lysine of GGK
